CDK5 inh: blocks human CDK5/p35 kinase activity | Q00535+Q15078 | Recombinant CDK5/p35, ADP-Glo luminescence, 60 min | inhibition, % at 10 µM | 330,000 tested, 0.01% active | AID 488839;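 active means highest replicate inhibition of at least 50% and at least 75% of replicates reaching 50%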
CAL PDZ FP-1: inhibitors of human CAL PDZ peptide binding; purified CAL PDZ, TMR-peptide fluorescence polarization, 1 h; inhibition, % at 20 µM; 330,000 tested, 0.02% active; AID 504414;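 active means highest replicate inhibition of at least 40%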
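Test system: tagged CAL PDZ domain / Buffer or medium: sodium phosphate/NaCl buffer pH 7.4 with TCEP, IgG, Thesit / Reagent: TMR-labelled reporter peptide T*-PRC34 bound in PDZ groove / Compound dosing: single point, 20 µM / Schedule: 1 h incubation at room temperature before polarization reading / Technique: fluorescence polarization (mP) / Benchmarks: unlabelled peptide, DMSO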
UUG fidelity: alters start codon recognition fidelity in yeast; S. cerevisiae UUG-firefly luciferase reporter, luminescence/redox ratio; activity score, % at 18.7 µM; actives 0.13% (n = 350,000); AID 602363;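 active = replicate mean at a twofold rise or more, about +100% in these data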;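 also: firefly luciferase made from a UUG start codon reports start codon fidelity; reporter light over untreated wells divided by growth signal over untreated wells; some hits fall short of that in this replicate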
DYRK1A inh: Dyrk1A (rat) kinase inhibition | inhibition, % at 12.5 µM | Q63470 | 310,000 tested, 0.43% active | ADP-Glo luminescence, NFATc1 peptide; in the data active means inhibition above about 50%
CAL PDZ FP-2: inhibitors of human CAL PDZ peptide binding | Q9HD26 | purified CAL PDZ, TMR-peptide fluorescence polarization, 1 h | inhibition, % at 24.9 µM | 300,000 tested, 0.92% active;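 active means mean inhibition of at least 30% with at least half of replicates also reaching 30%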
dFosB act-1: enhances mouse delta FosB homodimer DNA binding. P13346. 340,000 tested, 0.99% active. purified delta FosB, TAMRA-CDK5 oligo fluorescence polarization; percent of positive-control signal above neutral wells. activation, % at 25 µM;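 active means mean activation above about 17%, with every replicate also reaching it, limit read from the data, passing the limit was not always enough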
dFosB act-2: enhances mouse delta FosB homodimer binding to DNA. shares compounds with dFosB act-1. purified delta FosB, TAMRA-CDK5 oligo fluorescence polarization; normalised: neutral wells 0, positive control 100. activation, % at 24.9 µM. 2,400 tested, under 10 active. AID 588690;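 active means highest replicate activation at or above 34% and every replicate reaching that threshold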;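 further: higher polarization means more probe DNA bound by delta FosB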
ADP-Glo artifact: counter-screen for Dyrk1A inhibitors: ADP-Glo luciferase artifacts. shares compounds with DYRK1A inh. AC50, µM (highest dose often 12 µM). ADP-Glo luciferase artifact assay, no Dyrk1A, luminescence. 1,300 tested, under 10 active;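 active means fitted half-maximal dose AC50 no more than ten times the top valid tested dose, with luminescence dropping as dose rises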
A number is an active result; - = inactive; . = not tested or not shown. Most compounds without a hit are left out; they make up all but 1.7% or so of the library.

SMILES	CDK5 inh	CAL PDZ FP-1	UUG fidelity	DYRK1A inh	CAL PDZ FP-2	dFosB act-1	ADP-Glo artifact	others
CN1CCc2cc3c(c4c2[C@H]1[C@H](O)c1ccccc1-4)OCO3	-	-	-	82	-	32	-	dFosB act-2=-
COc1cccc(S(=O)(=O)Nc2ccc3c(c2)C(=O)N(C)C[C@H](OC)[C@@H](C)CN[C@@H](C)CO3)c1	.	.	-	.	.	.	.
Cc1cccc2nc(-c3cccc(NC(=O)c4ccc(Cl)cc4)c3)cn12	-	-	-	55	.	21	-	dFosB act-2=-
Cc1cccc2nc(-c3cccc(NC(=O)Cc4ccccc4)c3)cn12	-	-	-	-	-	-	.
Fc1ccccc1NC(=S)Nc1cccc2cnccc12	-	-	.	65	-	-	-
CC(=O)N(/N=C1\Sc2ccccc2C1=O)c1cccc(C)c1	-	-	-	50	-	-	-
CC(=O)N(CN1C(=O)c2ccccc2C1=O)c1cccc(C)c1	-	-	-	-	-	-	.
CN1C(=O)c2cc(NC(=O)c3cccs3)ccc2OC[C@@H]2O[C@@H](CC(=O)NCC3CC3)CC[C@H]21	.	.	-	.	.	.	.
COc1ccc(-c2nc3ccccc3s2)cc1O	-	-	-	-	-	-	.
CCOc1cc(-c2nc3ccccc3s2)ccc1O	-	-	-	58	-	-	-
COc1cc(-c2nc3ccccc3s2)ccc1O	-	-	-	77	-	-	-
C[C@@H]1CCCCO[C@H](CN(C)C)[C@@H](C)CN([C@@H](C)CO)C(=O)c2cc(NC(=O)Nc3ccccc3)ccc2O1	.	.	-	.	.	.	.
C[C@@H]1CN([C@@H](C)CO)C(=O)Cc2cc(NC(=O)c3ccncc3)ccc2O[C@@H]1CN(C)S(=O)(=O)c1ccc(F)cc1	.	.	-	.	.	.	.
COc1ccc(-c2cc(NCCc3ccncc3)n3ncnc3n2)cc1	-	-	-	51	.	-	-
COc1cc(C=C2C(=O)c3ccccc3C2=O)ccc1O	-	-	-	97	-	-	-
COc1cc(/C=C2\SC(N)=NC2=O)ccc1O	-	-	-	90	-	-	-
COc1ccc(C=C2C(=O)c3ccccc3C2=O)cc1O	-	-	-	84	-	-	-
COc1cc(C=C2C(=O)c3ccccc3C2=O)cc(OC)c1OC	-	-	-	-	.	-	.
COc1ccc2c(c1)[C@H]1[C@H](CO2)[C@H](c2ccccc2)[C@]2(C)C(=O)Nc3ccc(C)cc3C(=O)N12	-	-	-	-	-	-	.
COc1ccc2c(c1)C(=O)N1[C@H]3c4cc(C)ccc4OC[C@@H]3[C@H](c3ccccc3)[C@]1(C)C(=O)N2	-	-	-	55	-	-	-
COc1ccc2c(c1)OC[C@H]1[C@H]2N2C(=O)CN(CC3CCCO3)C(=O)[C@@]2(C)[C@H]1c1ccccc1 (some centres not stated)	-	-	-	50	-	-	-
CC(C)NC(=O)N(C)C[C@H]1Oc2cc(-c3ccncc3)ccc2S(=O)(=O)N([C@@H](C)CO)C[C@H]1C	.	.	-	.	.	.	.
c1ccc2c(c1)Nc1ccncc1S2	-	-	.	79	-	-	-
c1ccc2c(c1)Nc1cc3ccccc3cc1S2	-	-	.	.	-	-	.
COc1ccc2c(c1)c(=O)oc1c(C)c(OCc3cc(C(=O)O)oc3C)ccc12	-	-	-	51	-	-	-
SMILES	CDK5 inh	CAL PDZ FP-1	UUG fidelity	DYRK1A inh	CAL PDZ FP-2	dFosB act-1	ADP-Glo artifact	others
O=C(O)/C=C/c1ccc2noc(-c3ccccc3)c2c1	-	-	-	70	-	-	-
Cc1ccc(-c2onc3ccc(C=O)cc23)cc1	-	-	-	-	-	-	.
O=C(C[C@@H]1C[C@H]2c3cc(NS(=O)(=O)c4ccc(F)cc4)ccc3O[C@H]2[C@H](CO)O1)NCc1ccc(Cl)cc1	.	.	-	.	.	.	.
OC(c1cc(C(F)(F)F)nc2c(Cl)cc(Cl)cc12)C1CCCCN1 (configuration not stated)	-	-	-	55	-	-	-
COc1ccc(N=Nc2c(C)n[nH]c2C)cc1	-	-	-	52	-	-	-
C=CS(=O)(=O)c1c2cc(OC)ccc2nc2ccc(OC)cc12	-	-	.	61	-	-	-
COc1ccc2nc(Cl)cc(Cl)c2c1	-	-	-	-	.	-	.
O=C(c1ccc2c3n(nc2c1)-c1ccccc1CO3)N1CCOCC1	-	-	-	59	-	-	9µM
O=C(c1ccc2c3n(nc2c1)-c1ccccc1CO3)N1CCCCC1	-	-	-	-	-	-	.
O=C(C[C@@H]1CC[C@H](NC(=O)C2CC2)[C@@H](CO)O1)NC1CCC1	.	.	-	.	.	.	.
C[C@@H]1CCCCO[C@@H](CN(C)C(=O)Cc2ccccc2)[C@@H](C)CN([C@@H](C)CO)C(=O)c2cc(NS(=O)(=O)c3cn(C)cn3)ccc2O1	.	.	-	.	.	.	.
O=C(N/N=C/c1ccc(O)c(O)c1)N/N=C/c1ccc(O)c(O)c1	-	-	-	80	-	-	-
Cc1nonc1C(=O)N/N=C/c1ccc(O)c(O)c1	-	-	-	-	-	-	.
CC(=O)N1c2ccc(S(=O)(=O)N3CCCC(C(=O)NCc4ccccc4Cl)C3)cc2CC1C (configuration not stated)	-	-	-	-	-	-	.
CCc1ccccc1NC(=O)C1CCCN(S(=O)(=O)c2ccc3c(c2)CC(C)N3C(C)=O)C1 (configuration not stated)	-	-	-	56	.	-	-
CCC(C)NC(=O)C1CCCN(S(=O)(=O)c2ccc3c(c2)CC(C)N3C(=O)C2CC2)C1 (configuration not stated)	-	-	-	58	.	-	-
CCC(C)NC(=O)C1CCCN(S(=O)(=O)c2ccc3c(c2)CC(C)N3C(C)=O)C1 (configuration not stated)	-	-	-	-	.	-	.
CCC(=O)N1C[C@@H]2[C@H](c3ccccc31)[C@H](CO)N2Cc1ccccc1F	.	.	-	.	.	.	.
S=c1sc2ccccc2n1CCc1ccncc1	-	-	-	62	-	-	-
COCC(=O)N(C)C[C@H]1Oc2cc(C#CCC(C)C)ccc2S(=O)(=O)N([C@H](C)CO)C[C@@H]1C	.	.	-	.	.	.	.
Oc1ccc2nnc3c(Br)cnn3c2c1	-	-	-	77	-	-	-
O=C(O)c1ccc(-c2ccc(/C=c3/sc4nc5ccccc5n4c3=O)o2)cc1Cl	-	-	.	54	-	-	-
c1cncc(-c2nc3ccccc3[nH]2)c1	-	-	.	51	-	-	-
O=C1CCCC2=C1Sc1ccccc1N2	-	-	-	57	.	-	-
O=C1Nc2ccccc2SC1=Cc1ccccc1	.	.	-	.	.	.	.

Bioassay records from PubChem.
